Values of other authors as cited in patent US7622630B2, “Chimeric cancer models” (AVEO Pharmaceuticals, Inc., priority 2003, dated 2009).

System: HER2-positive non-small cell lung cancer
Settings: human patients; literature report (Gatzemeier et al., Annals of Oncology 15:19-27 (2004))

Substance: trastuzumab
- efficacy in treating HER2-positive non-small cell lung cancer: do not seem efficacious
